Laboratory results as given in PubChem BioAssay AID602229 (The Scripps Research Institute Molecular Screening Center, 2012).
Only a part is listed here, and it is no random draw. Activity calls are given as the source filed them.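 Rule for the calls: active = inhibition above the mean of all tested compounds plus 3 SD (cut at about 70% in these data); inactive = the rest.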

Sequences of proteins named here, by UniProt entry; tags and fusion partners are left off.
UniProt Q9Y5X4, whole entry: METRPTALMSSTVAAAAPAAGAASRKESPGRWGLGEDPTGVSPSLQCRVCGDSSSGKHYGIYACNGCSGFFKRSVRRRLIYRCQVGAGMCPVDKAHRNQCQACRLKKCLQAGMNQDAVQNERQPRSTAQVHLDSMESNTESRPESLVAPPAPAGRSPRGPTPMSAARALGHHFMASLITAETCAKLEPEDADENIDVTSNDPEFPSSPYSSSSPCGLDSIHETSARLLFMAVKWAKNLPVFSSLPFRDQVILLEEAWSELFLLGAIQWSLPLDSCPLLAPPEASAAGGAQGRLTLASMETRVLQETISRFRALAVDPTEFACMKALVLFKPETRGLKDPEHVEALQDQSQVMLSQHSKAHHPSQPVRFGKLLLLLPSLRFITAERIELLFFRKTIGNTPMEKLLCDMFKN

Target: Photoreceptor-specific nuclear receptor (Homo sapiens) (UniProt Q9Y5X4)
Test: NCOR release from NR2E3 in cells – cell-based, luminescence, CHO-S, Gal4-NCOR/VP16-NR2E3, primary screen (AID 602229);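 note: 0% = DMSO with NR2E3 transfected cells and 100% = cells lacking NR2E3 construct; higher means lower luciferase signal from less NR2E3 corepressor binding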
Settings: CHO-S Gal4-NCOR/VP16-NR2E3 two-hybrid, luciferase; at 3.98 µM; active compounds read high

| SMILES | inhibition of corepressor binding |
| --- | --- |
| O=C(NCC1(N2CCCCC2)CCCCC1)c1ccc(OC(F)F)cc1 | inactive: -8.66% |
| COc1ccc(C(c2nnnn2C2CCCC2)N2CCC(n3c(=O)[nH]c4ccccc43)CC2)cc1 (stereo not drawn) | inactive: -4.19% |
| Cc1ccc(C(=O)NCC2(N(C)C)CCCCC2)o1 | inactive: 14.2% |
| CCCOc1ccc(C(=O)NCC2(N(C)C)CCCCC2)cc1OC | inactive: -24.2% |
| O=C(NCC1(N2CCCCC2)CCCCC1)c1cncc(Br)c1 | inactive: 11% |
| CN1CCC(Nc2cccc(F)c2)CC1 | inactive: -33.5% |
| COc1cc(OC)c(C(=O)NCC2(N(C)C)CCCCC2)cc1OC | inactive: -27.8% |
| CCC(c1nnnn1C(C)(C)C)N1CCC(n2c(=O)[nH]c3ccccc32)CC1 (stereo not drawn) | inactive: 25.8% |
| O=C(NCC1(N2CCOCC2)CCCCC1)c1cc(F)c(F)cc1Cl | inactive: -28.9% |
| CCCCn1nnnc1C(c1ccnc2ccccc12)N1CCC(n2c(=O)[nH]c3ccccc32)CC1 (stereo not drawn) | inactive: -1.39% |
| CC(C)c1ccc(NC2CCN(C(=O)OC(C)(C)C)CC2)cc1 | inactive: -68.6% |
| CCCCn1nnnc1C(c1ccccc1OC(F)(F)F)N1CCC(n2c(=O)[nH]c3ccccc32)CC1 (stereo not drawn) | inactive: 50.5% |
| COc1ccc(CN(CCCl)CCCl)cc1Cl | inactive: -4.09% |
| CN(C)c1cccc(C(=O)NCC2(N3CCCCC3)CCCCC2)c1 | inactive: -9.14% |
| O=c1[nH]c2ccccc2n1C1CCN(C(c2cc3ccccc3o2)c2nnnn2C2CCCCC2)CC1 (stereo not drawn) | inactive: -12% |
| O=C(OC1CN2CCC1CC2)C1c2ccccc2Oc2ccccc21 (stereo not drawn) | inactive: 10% |
| N#CC1(Nc2ccccc2)CCN(Cc2ccccc2)CC1 | inactive: -1.41% |
| O=C(NCC1(N2CCCCC2)CCCCC1)c1ccc(Cl)s1 | inactive: -14% |
| COc1ccc(Cl)cc1C(=O)NCC1(N2CCOCC2)CCCCC1 | inactive: -4.11% |
| CCOC(=O)N1CCC(Nc2ccc(OC)cc2)CC1 | inactive: 20% |
| CCCCn1nnnc1C(c1ccc(OC)cc1)N1CCC(n2c(=O)[nH]c3ccccc32)CC1 (stereo not drawn) | inactive: 1.42% |
| O=c1[nH]c2ccccc2n1C1CCN(C(c2ccccc2OC(F)(F)F)c2nnnn2C2CCCCC2)CC1 (stereo not drawn) | inactive: 8.5% |
| O=C(NCC1(N2CCCCC2)CCCCC1)c1ccc(Cl)nc1 | inactive: 8.7% |
| Cc1cc(C)cc(N(C(=O)c2ccccc2)C2CCN(C(=O)OC(C)(C)C)CC2)c1 | inactive: -16.4% |

| SMILES | inhibition of corepressor binding |
| --- | --- |
| O=C(NCC1(N2CCOCC2)CCCCC1)c1cc2ccccc2o1 | inactive: -17.1% |
| CSc1ccccc1C(=O)NCC1(N2CCCCC2)CCCCC1 | inactive: -14.1% |
| Cc1cccc(NC2(C#N)CCN(Cc3ccccc3)CC2)c1 | inactive: -54.1% |
| COc1ccc(C(=O)NCC2(N3CCCCC3)CCCCC2)cc1 | inactive: -6.01% |
| CCC(c1nnnn1C1CCCC1)N1CCC(n2c(=O)[nH]c3ccccc32)CC1 (stereo not drawn) | inactive: -8.04% |
| CC(C)(C)OC(=O)N1CCC(N(C(=O)c2ccccc2)c2ccc(F)cc2)CC1 | inactive: 1.66% |
| COc1ccc(C(=O)NCC2(N3CCCCC3)CCCCC2)c(OC)c1OC | inactive: -0.88% |
| O=C(NCC1(N2CCCCC2)CCCCC1)c1ccc(=O)[nH]c1 | inactive: -36.4% |
| CCCCn1nnnc1C(c1cccs1)N1CCC(n2c(=O)[nH]c3ccccc32)CC1 (stereo not drawn) | inactive: 29.4% |
| O=C(NCC1(N2CCCCC2)CCCCC1)c1cccs1 | inactive: 2.02% |
| CCCCn1nnnc1C(CC)N1CCC(n2c(=O)[nH]c3ccccc32)CC1 (stereo not drawn) | inactive: -5.96% |
| COc1cc(C(=O)NCC2(N(C)C)CCCCC2)ccc1OC(F)F | inactive: 13.1% |
| CCOC(=O)N1CCC(Nc2cccc(C)c2)CC1 | inactive: -1.35% |
| O=c1[nH]c2ccccc2n1C1CCN(C(c2cccc3ccccc23)c2nnnn2C2CCCC2)CC1 (stereo not drawn) | inactive: 22.6% |
| O=c1[nH]c2ccccc2n1C1CCN(C(c2ccccc2)c2nnnn2C2CCCCC2)CC1 (stereo not drawn) | inactive: -23.4% |
| O=C(NCC1(N2CCCCC2)CCCCC1)c1ccc(F)cc1 | inactive: 5.07% |
| CCCCOc1ccc(C(=O)NCC2(N3CCOCC3)CCCCC2)cc1 | inactive: 9.8% |
| O=P1(N(CCCl)CCCl)SCCCS1 | inactive: 11.8% |
| CCCCn1nnnc1C(c1cc2ccccc2o1)N1CCC(n2c(=O)[nH]c3ccccc32)CC1 (stereo not drawn) | inactive: 14.3% |
| CCOC(=O)N1CCC(Nc2ccc(F)cc2)CC1 | inactive: 15.2% |
| COc1ccc(NC2CCN(CCc3ccccc3)CC2)c(OC)c1 | inactive: 13.3% |
| CC(C)(C)n1nnnc1C(c1ccccc1)N1CCC(n2c(=O)[nH]c3ccccc32)CC1 (stereo not drawn) | inactive: 7.97% |
| O=C1CCN(Cc2ccccc2)CC1 | inactive: 3.73% |
| CCOc1ccc(C)cc1CN(CCCl)CCCl | inactive: 6.13% |
